The values below come from publication PMC8279415, “Targeting Acute Myelogenous Leukemia Using Potent Human Dihydroorotate Dehydrogenase Inhibitors Based on the 2-Hydroxypyrazolo[1,5-a]pyridine Scaffold: SAR of the Biphenyl Moiety” (Journal of Medicinal Chemistry, 2021).

Amino acid sequences for entries named in this document (tags omitted). A change or cut given only in a name is not applied to a line headed by its entry.
UniProt Q02127: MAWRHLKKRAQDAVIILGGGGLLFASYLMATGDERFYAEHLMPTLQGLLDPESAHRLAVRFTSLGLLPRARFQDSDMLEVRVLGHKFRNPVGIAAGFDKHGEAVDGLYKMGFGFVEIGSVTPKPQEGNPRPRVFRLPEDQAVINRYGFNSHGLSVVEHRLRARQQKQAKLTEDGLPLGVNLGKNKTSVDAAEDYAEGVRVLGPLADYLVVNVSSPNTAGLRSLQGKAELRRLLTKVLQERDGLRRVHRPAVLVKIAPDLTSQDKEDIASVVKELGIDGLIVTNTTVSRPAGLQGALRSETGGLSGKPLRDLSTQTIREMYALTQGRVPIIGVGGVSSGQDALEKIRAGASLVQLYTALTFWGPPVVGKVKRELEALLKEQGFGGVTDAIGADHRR

Data set [1] has as its system THP1 cells. Conditions: read-out: myeloid differentiation EC50 THP1 (earlier work); cited from earlier work.
Data set [2] relates to THP1 cells. As to the kind of experiment: Annexin V apoptosis assay in THP1. Conditions: Homo sapiens, THP-1, read-out: Apoptosis EC50 (C.L.95%) (supplement CSV).
For another data set, the system named is U937 cells. As to the kind of experiment: Annexin V apoptosis assay in U937. Particulars: Homo sapiens, U-937, 72 h, read-out: apoptosis EC50 U937 (CL 95%).
A short description of data set [3]: LogD7.4, shake-flask n-octanol/PBS. Conditions: pH 7.4.
Another data set addresses recombinant hDHODH (Homo sapiens, UniProt Q02127). As to the kind of experiment: hDHODH inhibition assay (DCIP reduction). Particulars: read-out: hDHODH, IC50 ± SE.

Like-named read-outs stand apart in the source and are kept apart here.

As usually defined, the EC50 is the concentration needed to bring the measured effect to its halfway point. In general, logD refers to the decadic logarithm of the distribution of all forms, ionised or not, between an organic phase and buffer at a given pH. A lower logD goes with lower lipophilicity. One may read the IC50 as the concentration that gives 50% inhibition.

On to `Cc1c(-c2ccc(-c3ccccc3F)cc2)nc2ccc(F)cc2c1C(=O)O` [Brequinar, reference compound], for which the EC50 with THP1 cells [1] is 265 nM; in the data set with THP1 cells [2], 299 nM; in the data set on U937 cells, 322 nM.

Turning to `COc1cccc(-c2c(F)c(F)c(NC(=O)c3c(O)nn4ccccc34)c(F)c2F)c1` [Compound 16, 2-Hydroxy-N-(2,3,5,6-tetrafluoro-3′-methoxy-[1,1′-biphenyl]-4-yl)pyrazolo[1,5-a]pyridine-3-carboxamide], in data set [3], the logD at 20 min is 2.46 ± 0.04.

Regarding `CCCOc1cccc(-c2c(F)c(F)c(NC(=O)c3c(O)nn4ccccc34)c(F)c2F)c1` [Compound 17, 2-Hydroxy-N-(2,3,5,6-tetrafluoro-3′-propoxy-[1,1′-biphenyl]-4-yl)pyrazolo[1,5-a]pyridine-3-carboxamide], the IC50 on recombinant hDHODH worked out at 4.09 ± 0.62 nM.
